The chains behind the UniProt entries cited, without tags or fusion partners. Residues count along the entry.
UniProt A0A8I3MKE6, 1-646: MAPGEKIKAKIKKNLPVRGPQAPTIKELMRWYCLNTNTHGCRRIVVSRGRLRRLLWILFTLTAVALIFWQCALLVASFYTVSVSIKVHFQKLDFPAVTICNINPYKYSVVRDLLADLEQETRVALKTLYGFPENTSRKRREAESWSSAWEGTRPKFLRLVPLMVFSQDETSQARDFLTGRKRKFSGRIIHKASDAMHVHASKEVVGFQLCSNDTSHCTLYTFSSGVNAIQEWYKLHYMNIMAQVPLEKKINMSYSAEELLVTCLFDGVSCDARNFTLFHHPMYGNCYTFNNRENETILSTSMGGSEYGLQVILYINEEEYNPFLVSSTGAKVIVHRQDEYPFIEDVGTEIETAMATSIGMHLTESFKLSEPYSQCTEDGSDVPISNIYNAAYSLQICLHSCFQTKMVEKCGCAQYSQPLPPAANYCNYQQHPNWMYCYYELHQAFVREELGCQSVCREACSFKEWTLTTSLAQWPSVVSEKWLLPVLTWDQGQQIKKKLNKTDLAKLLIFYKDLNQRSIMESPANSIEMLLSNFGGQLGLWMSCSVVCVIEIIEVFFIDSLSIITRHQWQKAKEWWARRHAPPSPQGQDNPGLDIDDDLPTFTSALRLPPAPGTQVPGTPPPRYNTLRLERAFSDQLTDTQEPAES
UniProt A0A8I3Q679, 1-649: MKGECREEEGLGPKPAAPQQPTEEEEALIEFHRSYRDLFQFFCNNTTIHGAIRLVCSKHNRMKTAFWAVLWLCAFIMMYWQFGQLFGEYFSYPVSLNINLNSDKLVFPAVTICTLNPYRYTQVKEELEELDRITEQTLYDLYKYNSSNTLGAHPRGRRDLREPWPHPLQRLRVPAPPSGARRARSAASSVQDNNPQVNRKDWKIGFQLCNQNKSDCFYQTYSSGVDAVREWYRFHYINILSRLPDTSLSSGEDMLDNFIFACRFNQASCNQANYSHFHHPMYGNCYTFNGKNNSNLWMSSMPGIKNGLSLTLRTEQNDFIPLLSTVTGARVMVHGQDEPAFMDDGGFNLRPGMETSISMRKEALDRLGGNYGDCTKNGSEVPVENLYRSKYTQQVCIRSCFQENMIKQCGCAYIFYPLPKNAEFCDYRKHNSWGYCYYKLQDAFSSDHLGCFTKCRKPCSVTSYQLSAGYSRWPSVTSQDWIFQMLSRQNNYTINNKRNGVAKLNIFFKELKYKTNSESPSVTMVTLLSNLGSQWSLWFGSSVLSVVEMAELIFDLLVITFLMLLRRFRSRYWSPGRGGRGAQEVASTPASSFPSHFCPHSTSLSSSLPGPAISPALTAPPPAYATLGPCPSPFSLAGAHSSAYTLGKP
UniProt Q95165, whole entry: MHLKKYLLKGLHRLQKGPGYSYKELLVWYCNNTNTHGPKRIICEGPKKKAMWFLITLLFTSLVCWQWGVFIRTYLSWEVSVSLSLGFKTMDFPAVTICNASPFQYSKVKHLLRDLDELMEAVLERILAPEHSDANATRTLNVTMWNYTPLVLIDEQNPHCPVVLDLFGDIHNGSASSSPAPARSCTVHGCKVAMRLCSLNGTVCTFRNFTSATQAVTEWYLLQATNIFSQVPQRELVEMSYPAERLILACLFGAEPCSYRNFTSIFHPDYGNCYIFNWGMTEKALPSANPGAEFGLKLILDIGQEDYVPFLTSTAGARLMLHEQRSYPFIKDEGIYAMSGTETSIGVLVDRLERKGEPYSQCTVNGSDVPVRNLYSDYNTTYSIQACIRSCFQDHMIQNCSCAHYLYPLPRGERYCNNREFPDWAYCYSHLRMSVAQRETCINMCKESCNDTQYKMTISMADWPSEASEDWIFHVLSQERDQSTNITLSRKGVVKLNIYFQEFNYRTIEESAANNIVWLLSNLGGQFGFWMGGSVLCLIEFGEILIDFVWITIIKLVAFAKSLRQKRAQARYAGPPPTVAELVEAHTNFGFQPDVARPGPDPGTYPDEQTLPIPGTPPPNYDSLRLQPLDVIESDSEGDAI

In US20050090505A1, “Methods of reducing risk of infection from pathogens” (priority 2003, published 2005):

Target: airway epithelial sodium currents (sodium channel) (UniProt A0A8I3MKE6+A0A8I3Q679+Q95165)
Experiment: Sodium channel blocking activity: inhibition of short circuit current (ISC) in airway epithelial monolayers mounted in Ussing chambers
Conditions: Capped Pyrazinoylguanidines, relative potency for PSA 4022 = 100 using EC50 from PSA 4022 in same run
Experimental: In Vitro Measure of Sodium Channel Blocking Activity and Reversibility
One assay used to assess mechanism of action and/or potency of the compounds of the present invention involves the determination of lumenal drug inhibition of airway epithelial sodium currents measured under short circuit current (ISC) using airway epithelial monolayers mounted in Ussing chambers. Cells obtained from freshly excised human, dog, sheep or rodent airways are seeded onto porous 0.4 micron Snapwell™ Inserts (CoStar), cultured at air-liquid interface (ALI) conditions in hormonally defined media, and assayed for sodium transport activity (ISC) while bathed in Krebs Bicarbonate Ringer (KBR) in Using chambers. All test drug additions are to the lumenal bath with half-log dose addition protocols (from 1×10^−11 M to 3×10^−5 M), and the cumulative change in ISC (inhibition) recorded. All drugs are prepared in dimethyl sulfoxide as stock solutions at a concentration of 1×10^−2 M and stored at −20° C. Eight preparations are typically run in parallel; two preparations per run incorporate amiloride and/or benzamil as positive controls. After the maximal concentration (5×10^−5 M) is administered, the lumenal bath is exchanged three times with fresh drug-free KBR solution, and the resultant ISC measured after each wash for approximately 5 minutes in duration. Reversibility is defined as the percent return to the baseline value for sodium current after the third wash. All data from the voltage clamps are collected via a computer interface and analyzed off-line.
Dose-effect relationships for all compounds are considered and analyzed by the Prism 3.0 program. IC50 values, maximal effective concentrations, and reversibility are calculated and compared to amiloride and benzamil as positive controls.

Structure (SMILES)	Fold Amiloride** (PSA 4022 = 100)	Fold Amiloride** (PSA 4022 = 100) (tested form: 2HCl)	other results
CN(C)S(=O)(=O)CCCOc1ccc(CCCCNC(=N)NC(=O)c2nc(Cl)c(N)nc2N)cc1	–	–	Fold Amiloride** (PSA 4022 = 100) (tested form: HCl): 83 ± 26
CN(C)C(=O)Sc1ccc(CCCCNC(=N)NC(=O)c2nc(Cl)c(N)nc2N)cc1	112 ± 52	–	–
COc1ccc(CN2C(=O)OC(CCCOc3ccc(CCCCNC(=N)NC(=O)c4nc(Cl)c(N)nc4N)cc3)C2=O)cc1 (stereo not shown)	–	–	Fold Amiloride** (PSA 4022 = 100) (tested form: HCl): 32 ± 16
N=C(NCCCCc1ccc(OCCCn2ccnc2)cc1)NC(=O)c1nc(Cl)c(N)nc1N	42 ± 17	–	–
N=C(NCCCCc1ccc(NC(=O)CCC(N)=O)cc1)NC(=O)c1nc(Cl)c(N)nc1N	49 ± 15	–	–
N=C(NCCCCc1ccc(OCCC2N=C(N)NC2=O)cc1)NC(=O)c1nc(Cl)c(N)nc1N (stereo not shown)	–	136 ± 58	–
N=C(NCCCCc1ccc(S(N)(=O)=O)cc1)NC(=O)c1nc(Cl)c(N)nc1N	76 ± 25	–	–
N=C(NCCCCc1ccc(NC(=O)CCC(=O)O)cc1)NC(=O)c1nc(Cl)c(N)nc1N	13 ± 4	–	–
N=C(NCCCCc1ccc(C[C@@H](N)CC(N)=O)cc1)NC(=O)c1nc(Cl)c(N)nc1N	–	107 ± 38	–
N=C(NCCCCc1ccc(OC2CN[C@H](C(N)=O)C2)cc1)NC(=O)c1nc(Cl)c(N)nc1N (stereo partly shown)	–	32 ± 10	–
